US10406157B2, “Tetrahydropyridopyrazine modulators of GPR6” (Takeda Pharmaceutical Company Limited, priority 2017, dated 2019)

The chains behind the UniProt entries cited, without tags or fusion partners. Where a name states a change or a piece, a line headed by the entry shows the natural chain unless it says otherwise.
UniProt Q12809: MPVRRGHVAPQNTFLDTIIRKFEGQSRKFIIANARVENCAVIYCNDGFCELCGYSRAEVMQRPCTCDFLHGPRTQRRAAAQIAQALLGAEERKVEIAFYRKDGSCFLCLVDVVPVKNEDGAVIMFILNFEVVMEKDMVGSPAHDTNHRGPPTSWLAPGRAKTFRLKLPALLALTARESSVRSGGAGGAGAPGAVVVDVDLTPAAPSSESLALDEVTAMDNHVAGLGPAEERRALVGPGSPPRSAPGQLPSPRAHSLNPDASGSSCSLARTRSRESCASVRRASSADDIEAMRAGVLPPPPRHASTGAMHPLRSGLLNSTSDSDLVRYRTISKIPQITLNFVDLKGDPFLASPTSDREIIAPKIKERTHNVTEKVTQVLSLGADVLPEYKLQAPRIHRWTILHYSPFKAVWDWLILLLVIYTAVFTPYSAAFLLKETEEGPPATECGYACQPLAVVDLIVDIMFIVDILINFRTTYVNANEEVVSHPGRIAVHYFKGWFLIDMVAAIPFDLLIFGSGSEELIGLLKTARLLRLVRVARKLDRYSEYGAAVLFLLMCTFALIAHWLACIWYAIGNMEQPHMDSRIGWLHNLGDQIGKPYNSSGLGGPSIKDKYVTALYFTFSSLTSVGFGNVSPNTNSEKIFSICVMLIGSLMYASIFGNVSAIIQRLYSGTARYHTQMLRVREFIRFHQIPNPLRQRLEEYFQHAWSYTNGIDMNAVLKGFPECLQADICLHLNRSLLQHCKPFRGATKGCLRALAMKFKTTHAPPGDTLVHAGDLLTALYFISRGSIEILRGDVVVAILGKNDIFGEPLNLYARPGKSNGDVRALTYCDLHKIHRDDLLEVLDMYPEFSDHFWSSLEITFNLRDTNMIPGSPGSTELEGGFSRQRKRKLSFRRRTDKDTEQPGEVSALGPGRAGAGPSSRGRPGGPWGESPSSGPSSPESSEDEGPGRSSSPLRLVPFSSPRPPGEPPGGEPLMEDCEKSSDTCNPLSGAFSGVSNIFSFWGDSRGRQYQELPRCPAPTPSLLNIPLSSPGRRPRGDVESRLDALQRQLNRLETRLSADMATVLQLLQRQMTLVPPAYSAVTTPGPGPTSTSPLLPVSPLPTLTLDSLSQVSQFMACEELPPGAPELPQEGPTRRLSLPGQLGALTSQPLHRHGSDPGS

Biological target: human hERG (Homo sapiens (Human), UniProt Q12809)
Test: Inhibition of human hERG via automated whole cell patch clamp
Format: cell-based
Conditions: safety margin for the free drug (SM-free)
Protocol: An automated whole cell patch-clamp system (QPATCH® 16) is used to record outward potassium currents from a single cell. The assay employs CHO-K1 (Chinese Hamster Ovary) cells stably transfected with human hERG cDNA. The cells are harvested by trypsinization and maintained in serum-free medium at room temperature before recording. The cells are washed and re-suspended in the extracellular solution before being applied to the automated patch-clamp sites. The test solutions are prepared in the aqueous extracellular solution (137 mM NaCl, 4 mM KCl, 1.8 mM CaCl2), 1 mM MgCl2, 10 mM D(+)-Glucose, 10 mM HEPES, pH adjusted to 7.4 with NaOH) on the day of patch-clamp assay. Seven concentrations (0.03, 0.1, 0.3, 1, 3, 10, and 30 μM) of the test compound are used to determine IC50. The aqueous intracellular solution contains 130 mM KCl, 10 mM NaCl, 1 mM MgCl2, 10 mM EGTA, 5 mM MgATP, and 10 mM HEPES (pH adjusted to 7.2 with KOH).
After whole cell configuration is achieved, the cell is held at −80 mV. A 50 ms pulse to −40 mV is delivered to measure the leaking current, which is subtracted from the tail current on-line. […] The percent inhibition of hERG channel is calculated by comparing the tail current amplitude before and after application of the compound (the current difference is normalized to the control).

CC(=O)N1CCc2nc(N3CCC(Oc4ccc(F)cc4F)CC3)c(N[C@@H]3CCOC3)nc2C1 [Formula 1, (R)-1-(2-(4-(2,4-difluorophenoxy)piperidin-1-yl)-3-((tetrahydrofuran-3-yl)amino)-7,8-dihydropyrido[3,4-b]pyrazin-6(5H)-yl)ethan-1-one]
(hERG IC50)/Ki: 358

CC(=O)N1CCc2nc(N3CCC(Oc4ccc(F)cc4F)CC3)c(N[C@H]3CCOC3)nc2C1 [Compound A, (S)-1-(2-(4-(2,4-difluorophenoxy)piperidin-1-yl)-3-((tetrahydrofuran-3-yl)amino)-7,8-dihydropyrido[3,4-b]pyrazin-6(5H)-yl)ethan-1-one, reference compound]
(hERG IC50)/Ki: 84
